Here are results for one substance from patent US20080299592A1, “Red-Shifted Luciferase” (priority 2007, published 2008).

The series has as its system HeLa cells. The experiment in a line: Intracellular staining of mammalian tissue culture cells (HeLa) with bis-arsenical dyes. Format: cell-based. The settings on record: deep red fluorescence.

With bis-arsenical oxazine 170 [As2Ox170], the photobleaching result is “less prone to photobleaching than either FlAsH or ReAsH”.
